Test results reported in article PMC7619101.

Legend:
[1] = molecular target: GluA4, edited at the R743G site (rat)

GluA4 H233A (receptor)
recovery from desensitization, fold slowing against GluA4 wild type (GluA4 H233A (rat)): 1.4 fold

GluA4 R230A/H233A (receptor)
recovery from desensitization, tau (HEK293T cells with TARP-γ2, 10 mM glutamate two-pulse protocol) (GluA4 R230A/H233A (rat)): 24.3 ms

GluA4, edited at the R743G site (receptor)
recovery from desensitization, tau (HEK293T cells with TARP-γ2, 10 mM glutamate two-pulse protocol) [1]: 17.1 ms
